Target: T1, rat α2B (Rattus norvegicus, UniProt P19328)
T1 construct: expressed in transfected cells; host or cells: CHO cells (CHO-RNG)
Assay: Receptor binding, [3H]rauwolscine, CHO-RNG cells expressing rat α2B
Conditions: 22° C., 30 min
Method: Cell preparation: Chinese hamster ovary (CHO) cells expressing the human α2A and human α2C (CHO-C10 and CHO-C4 respectively) receptors and CHO cells (CHO-RNG) expressing the rat α2B, adrenoceptor were grown to near confluence in Dulbecco's modified Eagle's medium supplemented with 10% fetal bovine serum using standard cell culture methods. Cells were harvested by scraping and placed into cold buffer of the following composition: 50 mM Tris-HCl, 5 mM EDTA, pH 7.4). […] The pellet fraction was washed (resuspended in Tris-HCl, pH 8 buffer and centrifuged for 15-20 minutes at 49,000× g) 2 times and stored at -100° until binding assay.
Binding Studies: The radioligands [^3 H]rauwolscine (specific activity 80 Ci/mmol) and [^3 H]prazosin (specific activity 76 Ci/mmol) were obtained from New England Nuclear, Boston, Mass. […] The filters were then oven dried and transferred to scintillation vials containing 10 mL of Beckman's Ready Protein® scintillation cocktail for counting. […] Protein concentrations were determined with a protein assay kit from Bio Rad. Binding isotherms, equilibrium dissociation and affinity constants were analyzed and determined by the non-linear least squares curve fitting programs EBDA (BioSoft) or AccuFit Competition/Saturation by Beckman. […]

By UniProt entry, the sequences of proteins in these tests, tags left out.
UniProt P19328, whole entry: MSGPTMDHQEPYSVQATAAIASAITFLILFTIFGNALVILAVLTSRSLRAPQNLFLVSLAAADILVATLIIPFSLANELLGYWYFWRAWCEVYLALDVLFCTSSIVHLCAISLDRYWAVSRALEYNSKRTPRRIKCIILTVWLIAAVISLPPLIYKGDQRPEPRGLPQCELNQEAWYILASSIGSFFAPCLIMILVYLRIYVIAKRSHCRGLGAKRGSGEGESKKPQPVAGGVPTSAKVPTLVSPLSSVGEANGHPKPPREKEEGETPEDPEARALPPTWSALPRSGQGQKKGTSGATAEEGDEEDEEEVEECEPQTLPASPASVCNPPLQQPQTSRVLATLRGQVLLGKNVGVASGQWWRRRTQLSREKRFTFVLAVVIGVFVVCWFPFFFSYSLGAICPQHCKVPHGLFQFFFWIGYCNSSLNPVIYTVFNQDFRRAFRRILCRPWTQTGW

SMILES: Brc1c(NC2=NCCN2)ccc2nccnc12 [Example 5]
- Ki: 52 nM

Reference: patent publication US6087361A, “Aryl-imidazolines and aryl-imidazoles useful as α-2 adrenergic agonists without cardiovascular side effects” (Allergan Sales, Inc., priority 1997, dated 2000)
